Laboratory results: ChEMBL document CHEMBL2321829, “3-Amido pyrrolopyrazine JAK kinase inhibitors: development of a JAK3 vs JAK1 selective inhibitor and evaluation in cellular and in vivo models” (J Med Chem, 2013)

Assays:
JAK3/JAK1 [1] = molecular target: T1, JAK3/JAK1 (Homo sapiens, UniProt P23458+P52333); format: protein-complex assay
JAK3/JAK1 [2] = molecular target: T1, JAK3/JAK1; format: tissue-based, Blood
[3] = molecular target: T2, Tyrosine-protein kinase JAK3 (Homo sapiens, UniProt P52333)
T2 sequence (P52333 whole entry): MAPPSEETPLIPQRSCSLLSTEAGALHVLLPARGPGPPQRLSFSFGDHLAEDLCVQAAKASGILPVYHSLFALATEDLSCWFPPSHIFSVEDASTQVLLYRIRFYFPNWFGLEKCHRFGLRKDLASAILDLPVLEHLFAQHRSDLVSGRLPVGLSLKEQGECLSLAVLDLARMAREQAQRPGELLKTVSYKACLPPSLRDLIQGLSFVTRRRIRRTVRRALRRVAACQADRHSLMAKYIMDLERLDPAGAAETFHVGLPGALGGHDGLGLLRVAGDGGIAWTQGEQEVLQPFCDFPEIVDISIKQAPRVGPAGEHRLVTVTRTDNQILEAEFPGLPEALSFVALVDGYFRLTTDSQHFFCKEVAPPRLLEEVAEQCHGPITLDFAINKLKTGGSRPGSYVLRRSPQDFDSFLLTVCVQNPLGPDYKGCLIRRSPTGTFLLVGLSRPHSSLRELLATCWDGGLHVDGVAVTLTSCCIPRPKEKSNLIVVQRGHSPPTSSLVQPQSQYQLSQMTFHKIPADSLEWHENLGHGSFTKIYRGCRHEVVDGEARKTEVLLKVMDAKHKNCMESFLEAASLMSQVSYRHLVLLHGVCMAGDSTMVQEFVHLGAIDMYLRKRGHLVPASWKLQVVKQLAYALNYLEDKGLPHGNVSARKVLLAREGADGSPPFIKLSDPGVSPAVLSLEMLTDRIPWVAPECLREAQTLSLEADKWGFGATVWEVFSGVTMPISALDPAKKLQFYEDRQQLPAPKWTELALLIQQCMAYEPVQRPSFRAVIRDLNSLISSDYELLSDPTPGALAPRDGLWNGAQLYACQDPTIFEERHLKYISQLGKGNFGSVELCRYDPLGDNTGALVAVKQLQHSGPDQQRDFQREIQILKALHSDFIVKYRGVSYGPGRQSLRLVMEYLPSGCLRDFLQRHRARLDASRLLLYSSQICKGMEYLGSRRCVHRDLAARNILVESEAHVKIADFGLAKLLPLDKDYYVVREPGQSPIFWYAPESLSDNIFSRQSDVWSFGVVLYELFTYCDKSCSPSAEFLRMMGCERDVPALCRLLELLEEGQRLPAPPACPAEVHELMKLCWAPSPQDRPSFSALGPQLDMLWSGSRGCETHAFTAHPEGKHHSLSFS

| SMILES | IC50 (JAK3/JAK1 [1]) [nM] | IC50 (JAK3/JAK1 [2]) [nM] | IC50 [3] [nM] |
| --- | --- | --- | --- |
| C[C@@H](NC(=O)c1c[nH]c2ncc(C3CC3)nc12)C(=O)N1CC(C#N)C1 | 328 | 805 | 8.2 |
| N#C[C@@H]1CCN(C(=O)[C@H](NC(=O)c2c[nH]c3ncc(C4CC4)nc23)C2CC2)C1 |  |  | < 0.3 |
| N#C[C@H]1CCN(C(=O)[C@H](NC(=O)c2c[nH]c3ncc(C4CC4)nc23)C2CC2)C1 | 28 | 1150 | 0.44 |
| CC(C)NC(=O)c1c[nH]c2ncc(C3CC3)nc12 |  |  | 44.5 |
| C[C@H](NC(=O)c1c[nH]c2ncc(C3CC3)nc12)C(C)(C)O | 2230 | 15700 | 17 |
| C[C@@H](NC(=O)c1c[nH]c2ncc(C3CC3)nc12)C(=O)N1CCCC1 |  |  | 48.5 |
